One-dose inflammasome screen (PubChem AID 2061109, Seoul National University)
system: mouse macrophages from bone marrow, LPS + nigericin (NLRP3)
compound dose: 5 µM
value: % inhibition of cell death (propidium iodide), 0 = stimulated, 100 = untreated, floor at 0
*: called active, above 70% Part of the library is listed.

For C(=N\NC1=NCCN1)/c1c2ccccc2c(/C=N/NC2=NCCN2)c2ccccc12 the inhibition was 5.6%.
For CC1(C)N([O-])c2cc([N+](=O)[O-])ccc2[N+]1=O the inhibition was 0.0%.
For Cc1ccc(C(=O)Nc2cccc(C(F)(F)F)c2)cc1-c1ccc2c(-c3cnn(C4CC4)c3)n[nH]c2c1 the inhibition was 79.9*%.
With Cl[TeH]1(Cl)(Cl)OCCO1.N the inhibition was 79.6*%.
With CC(=O)Nc1ccc(/C=N/NC(N)=S)cc1 the inhibition was 0.0%.
For CN1CCN(C(=O)N[C@@H](Cc2ccccc2)C(=O)N[C@H](C=CS(=O)(=O)c2ccccc2)CCc2ccccc2)CC1 the inhibition was 6.2%.
For CC(=O)N([C@H](C=O)CC(=O)O)[C@H](C(=O)NC(=O)[C@H](CCC(=O)O)NC(=O)[C@@H](N)CC(=O)O)C(C)C.CC(=O)O the inhibition was 22.6%.
With CCN(CC)CCOc1ccc(Cc2ccccc2)cc1.O=C(O)/C=C/C(=O)O the inhibition was 38.3%.
With Fc1ccc(Cl)cc1-c1nc(Nc2ccncc2)c2nccnc2n1 the inhibition was 0.0%.
For CC(=O)N[C@H]1CSSC[C@@H](C(N)=O)NC(=O)[C@H](C(C)C)NC(=O)[C@H](C)NC(=O)[C@H](Cc2cnc[nH]2)NC1=O.O=C(O)C(F)(F)F the inhibition was 63.5%.
With CC(C)(C)C(=O)Oc1ccc(S(=O)(=O)Nc2ccccc2C(=O)NCC(=O)[O-])cc1.O.O.O.O.[Na+] the inhibition was 67.5%.
Compound C[C@]1(c2ncncc2F)NC(=O)c2cc(-c3cn[nH]c3)ccc21.O : the inhibition was 0.0%.
For CCOC(=O)CN1C(=O)c2ccc3c4c(ccc(c24)C1=O)C(=O)N(CC(=O)OCC)C3=O the inhibition was 33.9%.
With CC(C)n1nc(-c2ccc(NC(=O)Nc3cccc(C(F)(F)F)c3)cc2)c2c(N)ncnc21 the inhibition was 37.6%.
With CC(C)(C)CN(C(=O)CCl)C1CCS(=O)(=O)C1 the inhibition was 13.3%.
With CCOC(=O)N1c2ccc(C(F)(F)F)cc2[C@@H](N(Cc2cc(C(F)(F)F)cc(C(F)(F)F)c2)C(=O)OC)C[C@H]1CC the inhibition was 8.9%.
For O=c1[nH]ncc(N2CCc3c(ncnc3Oc3ccc(F)cc3C(F)(F)F)C2)c1Cl the inhibition was 0.0%.
Compound Cc1csc(-c2nnc(Nc3ccc(Oc4ncccc4-c4ccnc(N)n4)cc3)c3ccccc23)c1 : the inhibition was 84.9*%.
For CCOC(=O)COc1ccc(C=C2SC(=N)NC2=O)cc1OC the inhibition was 11.2%.
For Cl.NCCCCCCNS(=O)(=O)c1cccc2ccccc12 the inhibition was 0.0%.
For COc1ccccc1N1CCN(CCCNC(=O)c2cccc3c(=O)c(C)c(-c4ccccc4)oc23)CC1 the inhibition was 36.8%.
For C[C@H]1CC[C@]2(NC1)O[C@H]1C[C@H]3[C@@H]4CC[C@H]5C[C@@H](O[C@@H]6O[C@H](CO)[C@H](O[C@@H]7O[C@H](CO)[C@@H](O)[C@H](O[C@@H]8OC[C@@H](O)[C@H](O)[C@H]8O)[C@H]7O[C@@H]7O[C@H](CO)[C@@H](O)[C@H](O)[C@H]7O)[C@H](O)[C@H]6O)CC[C@]5(C)[C@H]4CC[C@]3(C)[C@H]1[C@@H]2C the inhibition was 37.6%.
Compound COc1ccc(C(=O)c2c(C)n(CCN3CCOCC3)c3cc(Br)ccc23)cc1 : the inhibition was 0.0%.
For CCCN1CCN(c2ccc(C(=O)NC3(C(=O)NCC#N)CCCCC3)cc2)CC1 the inhibition was 20.5%.
With COc1cc(C(=O)NCCOCCOCCOCCNC(=O)CC2N=C(c3ccc(Cl)cc3)c3c(sc(C)c3C)-n3c(C)nnc32)ccc1NC(=O)C1NC(CC(C)(C)C)C(C#N)(c2ccc(Cl)cc2F)C1c1cccc(Cl)c1F the inhibition was 0.0%.
With COc1ccc2c(c1)c(C(=O)Nc1cc(C(=O)OC(C)(C)C)ccc1F)cn2C(C)=O the inhibition was 68.3%.
For O=C(NNC(=O)c1ccc(CNS(=O)(=O)c2ccc(F)c(Cl)c2)cc1)c1ccccc1 the inhibition was 66.5%.
Compound CCN[C@H]1C[C@H](C)S(=O)(=O)c2sc(S(N)(=O)=O)cc21.Cl : the inhibition was 35.1%.
With NS(=O)(=O)c1cc(-c2nn[nH]n2)c(NCc2cccs2)cc1Cl the inhibition was 45.1%.
With O=C1NC(=O)/C(=C/c2ccc(-c3ccc(F)cc3O)o2)S1 the inhibition was 61.2%.
Compound C[C@@H]1[C@H](c2ccccc2)C[C@H](NC(=O)c2cnc3c(c2)C[C@@]2(C3)C(=O)Nc3ncccc32)C(=O)N1CC(F)(F)F : the inhibition was 12.6%.
With CN[C@H]1CCN(C(=O)c2ccc(Nc3ncc(F)c(-c4cnc(C)n4C(C)C)n3)cc2)C1 the inhibition was 51.7%.
Compound CCOC(=O)OC(C)OC1=C(C(=O)Nc2ccccn2)N(C)S(=O)(=O)c2ccccc21 : the inhibition was 0.0%.
With Cc1c(CC(=O)O)c(-c2ccccc2)nn1Cc1ccccc1S(=O)(=O)N1CCOCC1 the inhibition was 21.6%.
Compound O=C1Nc2ccc(S(=O)(=O)Nc3ccc(O)c(Cl)c3)c3cccc1c23 : the inhibition was 73.8*%.
For O=C(O)C1CCCN1C(=O)OCc1ccccc1 the inhibition was 30.4%.
For OC[C@H]1OC(O)C[C@@H](O)[C@@H]1O the inhibition was 60.5%.
With Cc1cc(C(=O)Nc2cccc(C(=O)Nc3cccc(C(F)(F)F)c3)c2)on1 the inhibition was 63.1%.
For CCN(CC)CCOC(=O)C1(C2CCCCC2)CCCCC1.Cl the inhibition was 0.0%.
With Cc1ncc(C)n2nc([C@@H]3C[C@H]3c3nc4c5cccnc5ccn4c3C)nc12 the inhibition was 23.2%.
For Cc1nc(-c2ccccn2)nc(NCCNc2cccc(C(F)(F)F)n2)c1Cl the inhibition was 0.0%.
With CCOC(=O)c1cc2cc(-c3cc(C(=O)NCc4ccc(C(=O)O)cc4)nn3C)ccc2[nH]1 the inhibition was 33.8%.
Compound O=C(O)c1ccc(CSc2nc(-c3ccccc3)cc(N3CCN(c4ccccc4Cl)CC3)n2)cc1 : the inhibition was 69.6%.
With Cn1cc(-c2ccc(CNc3cc(-c4cnc5cc(OCCCN6CCCC6)ccn45)ncn3)cc2)cn1 the inhibition was 79.0*%.
Compound Cn1ncc2cc(-c3cnc(N)c(Cl)c3N3CCC4(CCNC4=O)CC3)ccc21 : the inhibition was 25.9%.
With CCN(CC)CCNC(=O)c1ccc(N)cc1 the inhibition was 70.5*%.
Compound C[C@@H]1COCCN1c1cc(=O)n2c(n1)N(Cc1cncc(Cl)c1)[C@H](C(F)(F)F)CC2 : the inhibition was 0.0%.
For CC(C)(C)NCC(O)c1ccccc1Cl.Cl the inhibition was 0.0%.
Compound CC(C)Cc1ccc([C@@H](C)C(=O)NS(C)(=O)=O)cc1 : the inhibition was 68.5%.
For Nc1ccc(C#CCN(C(=O)Cc2ncc(C(F)(F)F)cc2C(F)(F)F)c2ccc(F)cc2)nn1 the inhibition was 0.0%.
Compound Cl.Cl.NCCNc1ncc(C(N)=O)c(Nc2cccc(C(F)(F)F)c2)n1 : the inhibition was 65.9%.
With CC[C@]1(O)C[C@H]2CN(CCc3c([nH]c4ccccc34)[C@@](C(=O)OC)(c3cc4c(cc3OC)N(C)[C@H]3[C@@](O)(C(=O)OC)[C@H](OC(C)=O)[C@]5(CC)C=CCN6CC[C@]43[C@@H]65)C2)C1.O=S(=O)(O)O the inhibition was 2.6%.
With O=C(c1c(O)c2ccc(Cl)cc2[nH]c1=O)C1CC1 the inhibition was 26.4%.
With N[C@@H](CC(=O)N1CCn2c(nnc2C(F)(F)F)C1)Cc1cc(F)c(F)cc1F.O=P(O)(O)O the inhibition was 0.0%.
For COc1cccc(Cn2c(=O)oc3cc(-c4cnc5[nH]ccc5c4)ccc32)c1 the inhibition was 80.2*%.
For FC(F)(F)c1ccccc1-c1nc(NCc2cccs2)c2ccccc2n1 the inhibition was 34.2%.
With CC(C)OC(=O)NC1CCN(Cc2cc(Cl)c3cccnc3c2O)CC1 the inhibition was 71.8*%.
With CC(=O)N1CCC(NC(=O)NC23CC4CC(CC(C4)C2)C3)CC1 the inhibition was 0.0%.
Compound COc1ccc(CCNCC(O)COc2cccc(C)c2)cc1OC.Cl : the inhibition was 0.0%.

The first 9 compounds once more:

compound	inhibition [%]
C(=N\NC1=NCCN1)/c1c2ccccc2c(/C=N/NC2=NCCN2)c2ccccc12	5.6
CC1(C)N([O-])c2cc([N+](=O)[O-])ccc2[N+]1=O	0.0
Cc1ccc(C(=O)Nc2cccc(C(F)(F)F)c2)cc1-c1ccc2c(-c3cnn(C4CC4)c3)n[nH]c2c1	79.9*
Cl[TeH]1(Cl)(Cl)OCCO1.N	79.6*
CC(=O)Nc1ccc(/C=N/NC(N)=S)cc1	0.0
CN1CCN(C(=O)N[C@@H](Cc2ccccc2)C(=O)N[C@H](C=CS(=O)(=O)c2ccccc2)CCc2ccccc2)CC1	6.2
CC(=O)N([C@H](C=O)CC(=O)O)[C@H](C(=O)NC(=O)[C@H](CCC(=O)O)NC(=O)[C@@H](N)CC(=O)O)C(C)C.CC(=O)O	22.6
CCN(CC)CCOc1ccc(Cc2ccccc2)cc1.O=C(O)/C=C/C(=O)O	38.3
Fc1ccc(Cl)cc1-c1nc(Nc2ccncc2)c2nccnc2n1	0.0